ChEMBL document CHEMBL2346547, “Bifunctional inhibition of human immunodeficiency virus type 1 reverse transcriptase: mechanism and proof-of-concept as a novel therapeutic design strategy” (J Med Chem, 2013)

What was measured:
[1] = target: Human immunodeficiency virus type 1 reverse transcriptase (Human immunodeficiency virus 1) (UniProt Q72547); assay: Inhibition of C-Terminal histidine-tagged wild type heterodimeric HIV-1 reverse transcriptase p66/p51 assessed as inhibition of dTTP incorporation to 5'- primer after 30 mins by PAGE using D23/D36 primer/template
[2] = target: Human immunodeficiency virus type 1 reverse transcriptase (Human immunodeficiency virus 1) (UniProt Q72547); assay: Inhibition of C-Terminal histidine-tagged wild type heterodimeric HIV-1 reverse transcriptase p66/p51 assessed as inhibition of dGTP incorporation to 5'- primer after 30 mins by PAGE using D24/D36 primer/template

Cc1cc(C#CCOCCOCCOCCOCCOCC#Cc2cn([C@H]3C=C[C@@H](COP(=O)(O)OP(=O)(O)OP(=O)(O)O)O3)c(=O)[nH]c2=O)cc(C)c1Oc1ccnc(Nc2ccc(C#N)cc2)n1
inhibition [1]: 100% | inhibition [2]: inactive

Calls of active or inactive are those of the source. The rule behind the calls is not given here.
